# Yeast mating assay 1: variants of the scFv Ab-14

The measurements come from Engelhart et al. 2022 (doi:10.1038/s41597-022-01779-4) through the FLAb antibody collection.

All variants were tested on one target, the spike HR2 peptide PDVDLGDISGINAS (SARS-CoV-2).

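The library (AAYL49) carries one to three amino acid substitutions per variant, with no insertions or deletions. In AlphaSeq, yeast of one mating type display the scFv and yeast of the other type display the target. The frequency of each diploid, read from paired DNA barcodes, reflects how well the two displayed proteins bind. Scores were corrected for input abundance and mapped to Kd with protein pairs of known affinity run in the same pool. Mating was done three times.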

The variants keep the light chain, the linker and the frameworks of Ab-14 (scFv order VH, the linker GGGGSGGGGSGGGGS, VL).
VH: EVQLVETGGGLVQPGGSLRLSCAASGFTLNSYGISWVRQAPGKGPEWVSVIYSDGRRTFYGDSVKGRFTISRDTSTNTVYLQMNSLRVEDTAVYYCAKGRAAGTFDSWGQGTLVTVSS
VL: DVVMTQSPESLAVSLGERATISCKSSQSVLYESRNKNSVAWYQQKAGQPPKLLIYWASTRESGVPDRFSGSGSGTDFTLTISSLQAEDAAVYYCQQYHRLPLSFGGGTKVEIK

The parent's heavy chain CDRs are GFTLNSYGIS, VIYSDGRRTFYGDSVK, GRAAGTFDS; each variant's own CDRs replace them letter for letter. All variants listed here change V50 of the VH, counted from its first residue. Kd is apparent (estimated from mating counts) and averaged on the log scale over replicates with a signal. Smaller is tighter. An entry "no signal" has no value in the source: the pair was not observed among the diploids in any replicate. This suggests poor binding but is not conclusive. Parent in this assay: reference entry 4.4 nM, copy in this library 13 µM (one replicate of three). Nonspecific signal, from three strains lacking the peptide, appeared in 15% of pairings of library AAYL49, centred on 11 µM (5% of these signals below 680 nM); values are not corrected for it.

CDR-H1	CDR-H2	CDR-H3	Kd	seen in
GFTLNSYGIS	HIWSDGRRTFYGDSWK	GRAAGTFDS	60 µM	2 of 3
GFTLNSYGIS	IIYSDGRRTFYGHSVK	GRAAGTFDS	500 nM	1 of 3
GFTLNSYGIF	RIYSDGRRTFMGDSVK	GRAAGTFDS	12 µM	1 of 3
GFTLNSSGIS	YIYSDGRRTFYGRSVK	GRAAGTFDS	no signal	0 of 3
GFTLNSYGIS	FQYSFGRRTFYGDSVK	GRAAGTFDS	no signal	0 of 3
GFTLNSVGIS	IIYSDGRRTFYGDSVK	GRAAGTFDL	10 µM	2 of 3
GFTLNSYGIS	FIYSDGRRTCYGDSVK	GRAAGTADS	no signal	0 of 3
GFTLNSYGIS	IIYSDGRRTFYVDSVK	GRAAGDFDS	no signal	0 of 3
GFTLNSYFIS	FIYCDGRRTFYGDSVK	GRAAGTFDS	970 nM	1 of 3
GFTLNGYGII	IIYSDGRRTFYGDSVK	GRAAGTFDS	10 µM	2 of 3
GFTLNSYGIS	IIYSDERRTFYGDSVK	GRAAGTFDA	3.2 µM	1 of 3
GFTLNSYKIS	HIYPDGRRTFYGDSVK	GRAAGTFDS	1.9 µM	1 of 3
GFTLNSYGIS	FIYSDGRRTFYGWSVK	GRAKGTFDS	no signal	0 of 3
GFTLNLYGIC	CIYSDGRRTFYGDSVK	GRAAGTFDS	29 µM	2 of 3
GFTLNSYGIS	HIYSDGRRTFYGDSVK	GRALHTFDS	no signal	0 of 3
GFTLNTYGIS	DIYSDGRREFYGDSVK	GRAAGTFDS	15 µM	3 of 3
GFTLNSYGIS	KVYSDGRRTDYGDSVK	GRAAGTFDS	no signal	0 of 3
IFTLNSYGIS	NIYSDGRRTFYQDSVK	GRAAGTFDS	no signal	0 of 3
GFTLNSYGIS	WIYSDGRETFYGDSVR	GRAAGTFDS	no signal	0 of 3
GFTLNSYGIS	NIYSDGRRTFYGDSVK	GRAAGTFDS	11 µM	1 of 3
GFALNSYGIS	CIYSDGRRTFYGESVK	GRAAGTFDS	2.5 µM	3 of 3
GFTLNSYGIS	SIYSDGRRTFYVDMVK	GRAAGTFDS	510 nM	1 of 3
GFNLNSYEIS	FIYSDGRRTFYGDSVK	GRAAGTFDS	no signal	0 of 3
GFTLNSYGVS	EIYSDGRRTFYGSSVK	GRAAGTFDS	no signal	0 of 3
GFTLNSYGIS	DIDSDGRRTFYGDSVK	GRAAGTSDS	48 µM	2 of 3
GFTLNSYGIS	AIYSDANRTFYGDSVK	GRAAGTFDS	no signal	0 of 3
GFTLNSYGIS	FDYSDGRRTFYGDSVK	GRAAGTFDS	no signal	0 of 3
GFTLNSYGIS	TFYSDGRRTFYGDSVK	GRAAGTFDS	no signal	0 of 3
GFTLNSYGIS	HIYSDGRRTFYGDSVK	GRAYRTFDS	no signal	0 of 3
LKTLNSYGIS	HIYSDGRRTFYGDSVK	GRAAGTFDS	72 µM	1 of 3
GFGLNSYGIS	TIYSDGRRTFYGDSVK	GRRAGTFDS	no signal	0 of 3
GFTLNSYGIS	IIYSDGRRTFYGDSVK	GRAAGTFDF	36 nM	3 of 3
GFTLNSYGIS	DIYSDGRRTFYGDSVK	GRFAGTFDS	no signal	0 of 3
GFTLNSYGIE	YIYSDGRRTFYGDSVK	GRAAGTFFS	350 µM	3 of 3
WFTLNSYGIS	YIFSDGRRTFYGDSVK	GRAAGTFDS	13 µM	2 of 3
GFTLNSYGIS	PIYSYGRRTFYGDSVK	GRAAGAFDS	18 µM	1 of 3
GFTCNSYGIS	GIYSDGRRTFYGDSVG	GRAAGTFDS	no signal	0 of 3
GFTLNSLGIS	LIYSDGRRTFYGDSVK	GRAAHTFDS	3.4 µM	1 of 3
GFTLNHYGIS	WIYGDGRRTFYGDSVK	GRAAGTFDS	260 µM	1 of 3
GFTLNSYGIS	PIYSDGRRTQYGDSVK	GRAAGTFES	no signal	0 of 3
GFTLNSYGIS	IIKSDGRRTFYGDSVK	GRAAGTFDL	no signal	0 of 3
GFTLNSYGIS	PIYDDIRRTFYGDSVK	GRAAGTFDS	no signal	0 of 3
GFTLNSYGSS	AIYSDGRRTAYGDSVK	GRAAGTFDS	58 µM	2 of 3
GFTHNSYGIS	PIYSDGRRTHYGDSVK	GRAAGTFDS	340 µM	1 of 3
GFTNNSYGIS	QIYSDGRRTFYGDSVK	GRAAGIFDS	no signal	0 of 3
GFELNSYGIS	MIYSDCRRTFYGDSVK	GRAAGTFDS	no signal	0 of 3
GFTLNSYEIS	GIYEDGRRTFYGDSVK	GRAAGTFDS	no signal	0 of 3
GFTLNSYGRS	AIYSDGRRTFYGDSVK	GRAAETFDS	no signal	0 of 3
GFTLNSYGIS	HIYSDGRRTFFGDSVK	GRAIGTFDS	30 µM	2 of 3
GFTLNSYGIS	AIYSDGRHTFYGDSVK	GRAAGTFDW	no signal	0 of 3
GFTLNSCGIS	HIYSDGRRTFYGASVK	GRAAGTFDS	47 µM	1 of 3
GFILCSYGIS	MIYSDGRRTFYGDSVK	GRAAGTFDS	150 µM	1 of 3
GFTLNSYGIS	LIYVDGRRTFYGDSVK	GRAAGTFDS	no signal	0 of 3
GFTLNSYGIS	LIYSDGRRTFYGDSVK	GRAAGPFSS	no signal	0 of 3
GFTLNSYGIS	IIYSDGRRTFYGCSVK	GRAAGTFDS	no signal	0 of 3
GKTLNSYGIS	MIYSDGRRTFYGDSVK	GRAYGTFDS	no signal	0 of 3
GFTLNSYGIS	QIYSDGRRTFYGDSVK	GRAAGTFDS	no signal	0 of 3

For reference, 5 entries of the list once more:

| CDR-H1 | CDR-H2 | CDR-H3 | Kd | seen in |
|---|---|---|---|---|
| GFTLNSYGIS | IIYSDGRRTFYGDSVK | GRAAGTFDF | 36 nM | 3 of 3 |
| GFTLNSYGIS | PIYDDIRRTFYGDSVK | GRAAGTFDS | no signal | 0 of 3 |
| GFTNNSYGIS | QIYSDGRRTFYGDSVK | GRAAGIFDS | no signal | 0 of 3 |
| GFTLNSYGIS | FIYSDGRRTFYGWSVK | GRAKGTFDS | no signal | 0 of 3 |
| GFALNSYGIS | CIYSDGRRTFYGESVK | GRAAGTFDS | 2.5 µM | 3 of 3 |